These molecules were tested against T1, Quinolone resistance protein NorA (Staphylococcus aureus) (UniProt P0A0J7). Details: 1199B.
T1 sequence (whole entry): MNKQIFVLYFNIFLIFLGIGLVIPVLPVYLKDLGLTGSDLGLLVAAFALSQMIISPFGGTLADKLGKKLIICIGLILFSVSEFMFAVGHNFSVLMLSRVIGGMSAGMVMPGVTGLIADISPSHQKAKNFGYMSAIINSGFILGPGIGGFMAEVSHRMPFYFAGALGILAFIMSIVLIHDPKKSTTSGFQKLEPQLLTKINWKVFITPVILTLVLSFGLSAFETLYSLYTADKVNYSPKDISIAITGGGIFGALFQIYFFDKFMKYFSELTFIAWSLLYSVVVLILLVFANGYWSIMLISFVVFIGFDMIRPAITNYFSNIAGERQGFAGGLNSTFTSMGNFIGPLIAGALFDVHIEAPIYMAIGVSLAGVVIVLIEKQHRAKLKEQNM

Row | Structure (SMILES) | MEC [µg/mL]
1 | COc1cc2c(cc1OC1CC1)C=C(/C=C/C(=O)N1CCCCC1)CC2 | > 100
2 | O=C(CCC1CCc2ccccc2C1c1ccccc1)N1CCCCC1 (stereo not given) | 25
3 | Cc1ccccc1NC(=O)/C=C/C1=Cc2ccccc2CC1 | 25
4 | O=C(CCC1CCc2ccccc2C1)N1CCCCC1 (stereo not given) | 25
5 | COc1cc2c(cc1OC)CCC(/C=C/C(=O)NCC(C)C)=C2 | 12.5
6 | COc1cc2c(cc1OC)CCC(/C=C/C(=O)N1CCCCC1)=C2 | > 100
7 | CC(C)CN(CC(C)C)C(=O)/C=C/C1=C(c2ccccc2)c2ccccc2CC1 | > 100
8 | O=C(/C=C/C=C/c1ccc2c(c1)OCO2)N1CCCCC1 | 50
9 | CC(C)CNC(=O)CCC1CCc2ccccc2C1 (stereo not given) | 25
10 | COc1ccc(NC(=O)/C=C/C2=Cc3ccccc3CC2)cc1 | 25
11 | CC(C)CNC(=O)/C=C/C1=Cc2ccccc2CC1 | 12.5
12 | CC(C)N(C(=O)/C=C/C1=Cc2ccccc2CC1)C(C)C | 25
13 | CCCCCCCCNC(=O)/C=C/C1=Cc2cc(OC)c(OC)cc2CC1 | > 100
14 | COc1cc2c(cc1OC1CC1)C=C(/C=C/C(=O)NCC(C)C)CC2 | 12.5
15 | O=C(/C=C/C1=Cc2ccccc2CC1)N1CCCCC1 | 25
16 | COc1cc2c(cc1OC)CCC(/C=C/C(=O)N1CCOCC1)=C2 | > 100

More lines, now with the values ahead:

Row | MEC [µg/mL] | Structure (SMILES)
17 | > 100 | CC(C)CNC(=O)/C=C/C1=C(Cc2ccccc2)c2ccccc2CC1
18 | > 100 | CC(C)CN(CC(C)C)C(=O)/C=C/C1=C(Cc2ccccc2)c2ccccc2CC1
19 | > 100 | CC(C)N(C(=O)/C=C/C1=C(Cc2ccccc2)c2ccccc2CC1)C(C)C
20 | > 100 | CC(C)N(C(=O)/C=C/C1=C(c2ccccc2)c2ccccc2CC1)C(C)C
21 | > 100 | CC(C)CNC(=O)/C=C/C1=C(c2ccccc2)c2ccccc2CC1
22 | > 100 | O=C(/C=C/C1=C(Cc2ccccc2)c2ccccc2CC1)Nc1ccc2c(c1)OCO2
23 | 12.5 | O=C(/C=C/C1=C(c2ccccc2)c2ccccc2CC1)N1CCCCC1
24 | 25 | O=C(/C=C/C1=C(Cc2ccccc2)c2ccccc2CC1)N1CCCCC1
25 | > 100 | O=C(/C=C/C1=C(c2ccccc2)c2ccccc2CC1)Nc1cccc2ccccc12

— ChEMBL document CHEMBL1240453, “Substituted dihydronaphthalenes as efflux pump inhibitors of Staphylococcus aureus” (2010)
